A short description of the series: Comparison of solubility and effervescence of representative calcium preparations (Table 1). The note with it: corrected to 400 mg Ca per dose; medium as listed.

Turning to calcium acetate [Ca Acetate], the Effervescence result is “No”.

Source of the values: US10092593B2, “Citrate-rich calcium-magnesium supplement and uses thereof” (THE BOARD OF REGENTS OF THE UNIVERSITY OF TEXAS SYSTEM, priority 2012, dated 2018).
